uPA generation: inhibitors of cell surface uPA generation; cell surface uPA generation assay, qHTS; AID 540303; 330,000 tested, 0.31% active; Potency, µM (doses to about 38.3 µM), hits mostly inhibitors; active = well fitted inhibition curve with a large enough effect; inconclusive = small, poorly fitted or top-dose-only effect; inactive = no such curve, though single readings can be large or run the other way; tested in mouse RAW 264.7 cells; note: nearly all actives have a fitted effect of over 55% in size
TDP1 inh: inhibitors of human tyrosyl-DNA phosphodiesterase TDP1. Q9NUW8. recombinant TDP1, AlphaScreen DNA substrate cleavage. Potency, µM (titrated, usually from 130 µM), most hits filed as inhibitors. 350,000 tested, 0.28% active; note: nearly all actives have a fitted effect of over 40% in size
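Steps: enzyme plus compound, 15 min RT; add biotin/phosphotyrosine-FITC oligonucleotide (15 nM final), react 5 min; add donor/acceptor beads (10 ug/ml final), 10 min; read AlphaScreen. Tdp1 at 1 nM final.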
TDP1 cell noCPT: qHTS for Inhibitors of human tyrosyl-DNA phosphodiesterase 1 (TDP1): qHTS in cells in absence of CPT | 420,000 tested, 15% active | DT40 Tdp1-/- hTDP1 cells, no CPT, ATP luminescence, 48 h | Potency, µM (highest dose often 46.2 µM), hits mostly inhibitors; note: nearly all actives have a fitted effect of over 55% in size
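Chicken DT40 Tdp1-/- cells stably complemented with human TDP1 were seeded at 400 cells/well with DMSO in place of 20 nM camptothecin. After compound pinning, cells grew at least 48 hr at 37 °C; viability read by CellTiter-Glo luminescence.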
miR-21 reporter: raises the signal of a miR-21 reporter; Potency, µM (doses to about 38.3 µM); HeLa miR-21 FLuc reporter, luciferase, 48 h; AID 2288; 340,000 tested, under 10 active; active = well fitted rising curve with a large enough effect; inconclusive = small, poorly fitted or top-dose-only effect; inactive = no such curve, though single readings can be large or run the other way;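 further: miR-21 action dims this reporter so a rising signal means less miR-21 action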
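Using DMEM plus 10% FBS, HeLa miR-21-FLuc cells are incubated with test compounds (final up to about 40uM) for 48 hours; firefly luciferase signal is then imaged following reagent-mediated lysis.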
TDP1 cell CPT: DT40-hTDP1 cell growth loss with CPT. Potency, µM (doses to about 46.2 µM), hits mostly inhibitors. 420,000 tested, 12% active. chicken DT40 Tdp1-/-;hTDP1 cells + 20 nM CPT, ATP luminescence, 48 h; note: nearly all actives have a fitted effect of over 55% in size
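Chicken DT40 Tdp1-/- cells stably complemented with human TDP1 were seeded at 400 cells/well in medium containing 20 nM camptothecin, exposed to pin-transferred compounds, and grown at 37 °C for at least 48 hr. Viability was read as ATP luminescence.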
A number is an active result; 0 = inactive; ? = inconclusive; - = no result given. Compounds with a hit are over-represented: about 16% of the library has one in this group of screens. Unless noted, calls come from the whole dose curve; as a rule, active = well fitted curve in the direction sought with a large enough effect; inconclusive = small, poorly fitted or top-dose-only effect, or another doubt; inactive = no such curve, though single readings can be large; an effect the other way counts as inactive or inconclusive.

SMILES | uPA generation | TDP1 inh | TDP1 cell noCPT | miR-21 reporter | TDP1 cell CPT
CCCCc1cc(=O)oc2cc(OCC(=O)NCCN3CCOCC3)c(Cl)cc12 | 0 | 0 | 18µM | 0 | 13µM
Cc1c(OCC(=O)NC2CC(C)(C)NC(C)(C)C2)ccc2c1oc(=O)c1ccccc12 | 0 | 0 | 12µM | 0 | ?
Cc1cc(=O)oc2cc(OCC(=O)NCCN3CCOCC3)c(Cl)cc12 | 0 | 0 | 0 | 0 | 0
Cc1c(OCC(=O)NC2CC(C)(C)NC(C)(C)C2)ccc2c3c(c(=O)oc12)CCC3 | 0 | 0 | 0 | 0 | ?
CCCc1cc(=O)oc2c(C)c(OCC(=O)Nc3ccc(CN4CCOCC4)cc3)ccc12 | 0 | 0 | ? | 0 | 15µM
CN(C)/C=C/C(=O)c1nnn(C2CCCCC2)c1NC1CCCCC1 | 0 | 0 | 0 | 0 | ?
CCCc1cc(=O)oc2c(C)c(OCC(=O)NC3CCN(Cc4ccccc4)CC3)ccc12 | 0 | 0 | ? | 0 | 18µM
O=C(N/N=C/c1ccccc1)c1c(O)c2ccccc2[nH]c1=O | 0 | 0 | 12µM | 0 | 9.2µM
O=C(N/N=C/c1cccc(F)c1)c1c(O)c2ccccc2[nH]c1=O | 0 | 0 | 2.3µM | 0 | 2.3µM
O=c1[nH]c2ccccc2c(O)c1O | 0 | 0 | 5.8µM | 0 | 8.2µM
O=C(Nc1cccc(F)c1)c1c(O)c2ccccc2[nH]c1=O | 0 | - | 0 | 0 | 0
COC(=O)Nc1ccc(S(=O)(=O)NNC(=O)c2c(O)c3ccccc3[nH]c2=O)cc1 | 0 | - | 23µM | 0 | ?
O=c1[nH]c2ccccc2c(O)c1-[n+]1ccccc1 | 0 | 0 | 0 | 0 | 0
O=C(NNC(=O)c1c(O)c2ccccc2[nH]c1=O)c1ccccc1 | 0 | 0 | 0 | 0 | ?
CC1(C)[C@@H](OC(=O)CCC(=O)O)CC[C@@]2(C)[C@H]1CC[C@@]1(C)[C@H]2C(=O)C=C2[C@H]3C[C@](C)(C(=O)O)CC[C@]3(C)CC[C@@]21C | - | 0 | - | - | -
NN=C(c1cccc([N+](=O)[O-])c1)c1cccc([N+](=O)[O-])c1 | 0 | - | ? | - | 0
COC(=O)c1c(O)c2ccccc2[nH]c1=O | 0 | 0 | 0 | 0 | 0
O=C(N/N=C/c1ccc(F)cc1)c1c(O)c2ccccc2[nH]c1=O | 0 | 0 | 5.2µM | 0 | 4.6µM
O=C(Nc1ccc2c(c1)OCO2)[C@@H]1[C@@H]2C(=O)N(C3CCCCC3)C(=O)[C@@H]2C2c3ccccc3C=CN21 (some centres undefined) | - | 0 | - | 0 | -
COc1ccc(N2C(=O)[C@@H]3[C@H](C2=O)[C@H]2c4ccccc4C=CN2[C@@H]3C(C)=O)cc1 | 0 | 0 | 16µM | 0 | ?
CC(C)(C)C(=O)[C@@H]1[C@@H]2C(=O)N(C3CCCCC3)C(=O)[C@@H]2[C@H]2c3ccccc3C=CN12 | 0 | 0 | ? | 0 | 23µM
O=C(c1ccc2c(c1)OCO2)[C@@H]1[C@@H]2C(=O)N(C3CCCCC3)C(=O)[C@@H]2C2c3ccccc3C=CN21 (some centres undefined) | 0 | 0 | 16µM | 0 | ?
CCCCNC(=O)CCCN1C(=O)c2cccnc2Sc2ccccc21 | 0 | - | 0 | 0 | 0
S=C(NCc1ccco1)Nc1ccccn1 | 0 | 0 | ? | 0 | 0
CC(C)CCCN1C(Nc2ccccc2)=NC[C@@H]1Cc1ccccc1 | 0 | - | 16µM | 0 | ?
SMILES | uPA generation | TDP1 inh | TDP1 cell noCPT | miR-21 reporter | TDP1 cell CPT
CC(CCN1C(Nc2ccccc2)=NC[C@@H]1Cc1ccccc1)c1ccccc1 (some centres undefined) | 0 | - | 18µM | 0 | ?
CCCCN1C(Nc2ccccc2)=NC[C@@H]1CC(C)C | 0 | 0 | ? | - | ?
CCC(CC)CN1C(Nc2ccccc2)=NC[C@@H]1CC(C)C | 0 | - | ? | 0 | ?
CC(C)CCCN1C(Nc2ccccc2)=NC[C@@H]1CC(C)C | ? | - | 18µM | 0 | ?
CC(C)CN1C(Nc2ccccc2)=NC[C@@H]1C | 0 | - | 0 | 0 | 0
CC(C)C[C@H]1CN=C(Nc2ccccc2)N1CCCCc1ccccc1 | 0 | - | ? | 0 | 26µM
COc1ccc(C2/C=C\CN(Cc3ccccc3)C(C)C(=O)N2Cc2ccc(F)cc2)cc1 (centres undefined) | - | 0 | - | - | -
CC1Cc2ccccc2N1C(=O)Cn1cc(C(F)(F)F)ccc1=O (centres undefined) | - | - | ? | - | 0
CCOC(=O)C1=C(COC(=O)c2cccc(Cl)c2)NC(=O)NC1C (centres undefined) | 0 | 0 | 0 | 0 | 0
CC(C)CCN1C(Nc2ccccc2)=NC[C@@H]1Cc1ccccc1 | 0 | - | 16µM | 0 | ?
CC(CCN1C(Nc2ccccc2)=NC[C@@H]1C)c1ccccc1 (some centres undefined) | 0 | - | 12µM | 0 | 23µM
CC(C)CCN1C(Nc2ccccc2)=NC[C@@H]1C | 0 | - | ? | 0 | 0
Cc1ccc(Cn2ccn(Cc3ccc(C)cc3)c(=O)c2=O)cc1 | - | 0 | 0 | 0 | 0
Cc1ccc(CC2(C)C(=O)Nc3c(Cl)ccc(Cl)c32)cc1 (centres undefined) | - | - | 16µM | - | ?
CC1(Cc2ccc(Cl)cc2)C(=O)Nc2c(Cl)ccc(Cl)c21 (centres undefined) | - | - | ? | - | 26µM
COC(=O)C1CCN(C(=O)CN(C)Cc2ccc(C(C)(C)C)cc2)CC1 | 0 | - | ? | 0 | ?
O=C(O)C1C2C=CC(C2)C1C(=O)NCc1cccc(Cl)c1 (centres undefined) | 0 | - | 0 | 0 | 0
COc1ccc(N(CC(=O)Nc2ccccc2C(=O)NCC(C)C)S(C)(=O)=O)cc1 | 0 | 0 | 0 | 0 | 0
CN(C)c1ccc(/C=C/c2cccc[n+]2[O-])cc1 | 0 | 0 | 0 | 0 | 0
CC(C)CC[n+]1ccccc1/C=C/c1ccc(N(C)C)cc1 | 0 | - | 0.026µM | ? | 0.018µM
COc1cccc(CNC(=O)C2CCCN(c3nc4ccccc4n4cccc34)C2)c1 (centres undefined) | - | 0 | 15µM | 0 | ?
COc1ccccc1CNC(=O)C1CCCN(c2nc3ccccc3n3cccc23)C1 (centres undefined) | - | 0 | 13µM | 0 | ?
Cc1ccc(CNC(=O)C2CCCN(c3nc4ccccc4n4cccc34)C2)cc1 (centres undefined) | - | 0 | ? | 0 | ?
O=C(NCc1ccccc1Cl)C1CCCN(c2nc3ccccc3n3cccc23)C1 (centres undefined) | - | 0 | 21µM | ? | 18µM
Cc1ccc2c(c1)CCCN2C(=O)c1cnn2c1NC(=C1CC1)C=C2C(F)F | - | - | 10µM | - | 10µM
O=C(Nc1ccncc1)c1cnn2c1NC(=C1CC1)C=C2C(F)F | - | - | 11µM | - | 10µM
O=C(Nc1ccc(F)c(F)c1)c1cnn2c1NC(=C1CC1)C=C2C(F)F | - | - | 0 | - | 0
Cn1cccc1C(=O)NC(=O)COC(=O)c1cc(Cl)ccc1[N+](=O)[O-] | 0 | 0 | 0 | 0 | 0
Cc1cc(NCc2ccccc2)nc2ccccc12 | 0 | 0 | ? | 0 | ?

Screening data: PubChem, National Center for Advancing Translational Sciences (NCATS)
